Literature values as cited in patent publication US20220387435A1, “USE OF MULTI-TARGET PROTEIN KINASE INHIBITOR” (CSPC Zhongqi Pharmaceutical Technology (Shijiazhuang) Co., …, priority 2019, published 2022).
Entries after “also recorded” stand apart in the source; their conditions may differ.

System: FLT3, EGFR, Abl, Fyn, Hck, Lck, Lyn, Ret, Yes
Settings: similar products, prior art; cited from earlier work

Structure (SMILES)	Non-FLT3 targets
CC(C)(C)c1cc(NC(=O)Nc2ccc(-c3cn4c(n3)sc3cc(OCCN5CCOCC5)ccc34)cc2)no1 [Quizartinib]	c-KIT, PDGFR, and RET
CNC(=O)c1cc(Oc2ccc(NC(=O)Nc3ccc(Cl)c(C(F)(F)F)c3)cc2)ccn1 [Sorafenib]	c-KIT, PDGFR,; also recorded: RAF, VEGFR
